In the assay the target is T1, Neutrophil elastase (Homo sapiens, UniProt P08246).
T1 sequence (P08246 whole entry): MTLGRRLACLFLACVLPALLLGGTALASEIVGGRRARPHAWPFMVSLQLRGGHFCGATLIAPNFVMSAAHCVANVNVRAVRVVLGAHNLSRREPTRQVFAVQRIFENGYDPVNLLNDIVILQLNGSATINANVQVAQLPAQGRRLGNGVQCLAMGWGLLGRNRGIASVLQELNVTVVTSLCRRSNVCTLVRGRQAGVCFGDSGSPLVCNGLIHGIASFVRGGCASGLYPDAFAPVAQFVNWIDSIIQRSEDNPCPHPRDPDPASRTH

This is an account of results in ChEMBL document CHEMBL5210307, “Affinity Biochemical Literature for EUbOPEN Chemogenomics Library wave 3” (2023).

The term IC50 denotes the concentration that inhibits the measured activity by half. Lower therefore signals greater potency in that assay. `CC(=O)C1=C(C)N(c2cccc(C(F)(F)F)c2)C(=O)N[C@H]1c1ccc(C#N)nc1` [BAY-677]: the IC50 is > 2000 nM.
